# Experimental data: ChEMBL document CHEMBL1151692, “Substituted hippurates and hippurate analogs as substrates and inhibitors of peptidylglycine alpha-hydroxylating monooxygenase (PHM)” (Bioorg Med Chem, 2008)
# T1: Peptidylglycine alpha-amidating monooxygenase (Rattus norvegicus) (UniProt P14925)
# T1 sequence (whole entry): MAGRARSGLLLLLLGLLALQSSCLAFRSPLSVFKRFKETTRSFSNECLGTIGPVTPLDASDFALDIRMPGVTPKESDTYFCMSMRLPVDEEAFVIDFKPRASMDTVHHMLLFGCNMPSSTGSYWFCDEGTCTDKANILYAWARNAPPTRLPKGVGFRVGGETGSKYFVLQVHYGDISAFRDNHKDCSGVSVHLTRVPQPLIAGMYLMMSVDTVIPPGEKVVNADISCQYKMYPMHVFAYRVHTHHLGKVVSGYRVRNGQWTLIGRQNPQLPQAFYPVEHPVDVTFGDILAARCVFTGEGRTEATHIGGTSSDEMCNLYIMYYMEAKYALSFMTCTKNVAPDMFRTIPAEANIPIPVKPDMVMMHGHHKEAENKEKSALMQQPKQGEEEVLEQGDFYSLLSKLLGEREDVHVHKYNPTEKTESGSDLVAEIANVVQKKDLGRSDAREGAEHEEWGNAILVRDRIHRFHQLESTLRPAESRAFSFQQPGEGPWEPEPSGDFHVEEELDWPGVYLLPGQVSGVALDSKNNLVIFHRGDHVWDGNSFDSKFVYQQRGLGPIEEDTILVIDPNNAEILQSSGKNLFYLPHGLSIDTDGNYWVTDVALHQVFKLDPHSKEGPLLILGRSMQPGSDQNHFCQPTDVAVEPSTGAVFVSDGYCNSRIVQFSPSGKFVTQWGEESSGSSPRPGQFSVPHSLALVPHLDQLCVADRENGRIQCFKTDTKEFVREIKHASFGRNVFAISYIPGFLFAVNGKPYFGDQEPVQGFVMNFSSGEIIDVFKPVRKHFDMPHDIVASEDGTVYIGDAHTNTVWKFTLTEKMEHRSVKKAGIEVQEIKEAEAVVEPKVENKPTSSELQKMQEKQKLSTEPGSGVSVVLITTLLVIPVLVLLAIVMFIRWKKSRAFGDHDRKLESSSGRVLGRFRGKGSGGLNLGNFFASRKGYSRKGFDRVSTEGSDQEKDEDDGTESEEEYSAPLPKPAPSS
# B1: Peptidylglycine alpha-amidating monooxygenase (Rattus norvegicus), P14925 (protein)
# chain: T1 sequence (whole entry)
# What was measured:
# [1] = target: T1, Peptidylglycine alpha-amidating monooxygenase (Rattus norvegicus); experiment: (§1) Activity of rat recombinant peptidylglycine alpha-amidating monooxygenase assessed as stimulation of oxygen consumption
# Summary of the method: (§2)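 Recombinant rat type A medullary thyroid carcinoma PAM (bifunctional), 15–50 μg, in 100 mM MES/NaOH pH 6.0, 30 mM NaCl, 1% ethanol, 0.001% Triton X-100, 10 μg/mL catalase, 1.0 μM Cu(NO3)2, 5.0 mM ascorbate, ~200 μM O2, 37 °C. Substrate generally 0.3–5.0 KM,app. Initial O2 consumption rates read by oxygen monitor and fit to Michaelis–Menten.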
# [2] = target: T1, Peptidylglycine alpha-amidating monooxygenase (Rattus norvegicus); experiment: Ratio of Vm(app) to Km(app) for rat recombinant peptidylglycine alpha-amidating monooxygenase; summary of the method: as §2
# [3] = target: T1, Peptidylglycine alpha-amidating monooxygenase (Rattus norvegicus); experiment: Ratio of Vm(app) to Km(app) for rat recombinant peptidylglycine alpha-amidating monooxygenase relative to hippuric acid; summary of the method: as §2
# [4] = target: peptidylglycine alpha-amidating monooxygenase (Rattus norvegicus) (UniProt P14925); experiment: Inhibition of rat peptidylamidoglycolate lyase assessed as ascorbate-independent dealkylation of alpha-hydroxy-hipurate; design: concentration or dose not given beside the values; details: concentration not given here
# [5] = substrate: O=C(O)CNC(=O)c1cccs1; experiment: as §1; summary of the method: as §2
# [6] = substrate: C[C@@H](NC(=O)OCc1ccccc1)C(=O)O; experiment: as §1; summary of the method: as §2
# [7] = substrate: O=C(O)CNC(=O)CSc1ccccc1; experiment: as §1; summary of the method: as §2
# [8] = substrate: O=C(O)CNC(=O)Cc1ccccc1; experiment: as §1; summary of the method: as §2
# [9] = substrate: O=C(O)CNC(=O)c1cccnc1; experiment: as §1; summary of the method: as §2
# [10] = substrate: O=C(O)CNC(=O)CCCc1ccccc1; experiment: as §1; summary of the method: as §2
# [11] = substrate: O=C(O)CNC(=O)c1c(F)cccc1F; experiment: as §1; summary of the method: as §2
# [12] = substrate: CC(C)[C@H](NC(=O)[C@H](Cc1ccc(O)cc1)NS(=O)(=O)c1cccc2c(N(C)C)cccc12)C(=O)NCC(=O)O; experiment: as §1; summary of the method: as §2
molecule,measurement,setting,value
O=C(O)CNC(=O)Cc1ccccc1,Vmax(app),[1],7.4 s⁻¹
same,Ratio,[2],4.6 ×10⁴ /M/s
same,Activity,[3],7.4
C[C@@H](NC(=O)OCc1ccccc1)C(=O)O,Vmax(app),[1],1.4 s⁻¹
same,Ratio,[2],41 M⁻¹ s⁻¹
O=C(O)CNC(=O)c1cccnc1,Vmax(app),[1],8 s⁻¹
same,Ratio,[2],4.2 ×10³ /M/s
O=C(O)CCC(=O)c1ccccc1,inhibition,[4],< 5%
CCOC(=O)CNC(=O)[C@H](CS)NC(=O)CC[C@H](N)C(=O)O,inhibition,[4],< 5%
B1,Km,[5],1600 µM
same,Km,[6],35000 µM
same,Km,[7],190 µM
same,Km,[8],160 µM
same,Km,[9],1900 µM
same,Km,[10],160 µM
same,Km,[11],19000 µM
same,Km,[12],3.5 µM
